Results on 1 compound are retold here after patent US11878970B2, “Allosteric chromenone inhibitors of phosphoinositide 3-kinase (PI3K) for the treatment of disease” (Petra Pharma Corporation, priority 2021, dated 2024).

By UniProt entry, the sequences of proteins in these tests, tags left out. Where a name states a change or a piece, a line headed by the entry shows the natural chain unless it says otherwise.
UniProt P42336, whole entry: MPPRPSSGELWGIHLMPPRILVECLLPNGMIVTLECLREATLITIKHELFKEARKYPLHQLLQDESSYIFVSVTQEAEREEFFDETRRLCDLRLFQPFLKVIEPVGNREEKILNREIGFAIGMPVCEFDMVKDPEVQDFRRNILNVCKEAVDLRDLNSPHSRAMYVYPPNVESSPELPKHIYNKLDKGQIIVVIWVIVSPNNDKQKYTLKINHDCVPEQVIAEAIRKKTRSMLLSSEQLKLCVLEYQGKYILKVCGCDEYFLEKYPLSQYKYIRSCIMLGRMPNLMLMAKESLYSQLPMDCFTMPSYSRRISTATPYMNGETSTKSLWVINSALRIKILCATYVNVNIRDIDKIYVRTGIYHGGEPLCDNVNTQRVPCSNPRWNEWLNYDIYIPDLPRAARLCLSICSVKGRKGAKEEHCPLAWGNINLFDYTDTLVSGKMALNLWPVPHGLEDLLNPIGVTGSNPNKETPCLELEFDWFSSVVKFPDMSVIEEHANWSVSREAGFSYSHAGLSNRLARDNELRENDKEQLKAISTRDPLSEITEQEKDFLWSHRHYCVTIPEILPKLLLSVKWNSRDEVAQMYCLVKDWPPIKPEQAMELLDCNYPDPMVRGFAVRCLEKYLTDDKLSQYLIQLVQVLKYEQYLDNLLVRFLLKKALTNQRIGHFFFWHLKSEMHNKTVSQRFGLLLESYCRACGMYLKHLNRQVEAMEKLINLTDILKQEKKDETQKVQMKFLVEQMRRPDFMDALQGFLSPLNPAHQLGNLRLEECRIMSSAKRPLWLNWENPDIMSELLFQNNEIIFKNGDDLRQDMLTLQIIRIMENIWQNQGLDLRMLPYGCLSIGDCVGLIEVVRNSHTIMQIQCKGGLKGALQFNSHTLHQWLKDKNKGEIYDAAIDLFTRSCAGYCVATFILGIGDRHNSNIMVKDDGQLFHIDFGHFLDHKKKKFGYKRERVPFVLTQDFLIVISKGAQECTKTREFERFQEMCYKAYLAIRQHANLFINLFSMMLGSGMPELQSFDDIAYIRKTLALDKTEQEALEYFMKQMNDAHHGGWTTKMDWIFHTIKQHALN
UniProt P42336, whole entry H1047R: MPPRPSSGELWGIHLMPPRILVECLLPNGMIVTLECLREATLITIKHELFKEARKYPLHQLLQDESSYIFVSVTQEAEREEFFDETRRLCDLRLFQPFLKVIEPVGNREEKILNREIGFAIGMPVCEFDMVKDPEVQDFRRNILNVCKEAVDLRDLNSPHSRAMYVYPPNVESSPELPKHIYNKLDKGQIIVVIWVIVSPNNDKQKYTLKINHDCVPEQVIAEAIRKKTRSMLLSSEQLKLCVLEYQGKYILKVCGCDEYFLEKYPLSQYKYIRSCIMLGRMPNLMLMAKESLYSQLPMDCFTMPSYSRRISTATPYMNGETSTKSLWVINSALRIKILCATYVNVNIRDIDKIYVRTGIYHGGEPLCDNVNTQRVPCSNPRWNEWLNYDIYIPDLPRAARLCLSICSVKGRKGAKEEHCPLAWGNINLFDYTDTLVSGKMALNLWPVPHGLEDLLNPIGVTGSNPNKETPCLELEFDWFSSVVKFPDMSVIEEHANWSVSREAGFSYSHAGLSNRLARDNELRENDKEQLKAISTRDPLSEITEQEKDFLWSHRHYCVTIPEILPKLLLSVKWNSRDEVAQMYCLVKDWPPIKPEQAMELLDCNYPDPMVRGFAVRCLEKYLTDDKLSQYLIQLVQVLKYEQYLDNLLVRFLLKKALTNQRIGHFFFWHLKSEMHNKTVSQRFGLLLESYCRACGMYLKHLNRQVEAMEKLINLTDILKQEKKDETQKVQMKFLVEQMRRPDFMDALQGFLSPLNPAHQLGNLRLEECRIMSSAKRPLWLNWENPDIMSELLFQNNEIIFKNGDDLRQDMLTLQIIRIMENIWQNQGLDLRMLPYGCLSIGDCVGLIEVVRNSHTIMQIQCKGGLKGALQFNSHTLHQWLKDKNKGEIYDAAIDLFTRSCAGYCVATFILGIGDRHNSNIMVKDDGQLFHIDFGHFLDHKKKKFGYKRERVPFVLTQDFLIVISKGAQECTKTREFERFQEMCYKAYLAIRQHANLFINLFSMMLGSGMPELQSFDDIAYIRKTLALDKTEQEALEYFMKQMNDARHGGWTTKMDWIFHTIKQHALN
UniProt P27986, whole entry partner: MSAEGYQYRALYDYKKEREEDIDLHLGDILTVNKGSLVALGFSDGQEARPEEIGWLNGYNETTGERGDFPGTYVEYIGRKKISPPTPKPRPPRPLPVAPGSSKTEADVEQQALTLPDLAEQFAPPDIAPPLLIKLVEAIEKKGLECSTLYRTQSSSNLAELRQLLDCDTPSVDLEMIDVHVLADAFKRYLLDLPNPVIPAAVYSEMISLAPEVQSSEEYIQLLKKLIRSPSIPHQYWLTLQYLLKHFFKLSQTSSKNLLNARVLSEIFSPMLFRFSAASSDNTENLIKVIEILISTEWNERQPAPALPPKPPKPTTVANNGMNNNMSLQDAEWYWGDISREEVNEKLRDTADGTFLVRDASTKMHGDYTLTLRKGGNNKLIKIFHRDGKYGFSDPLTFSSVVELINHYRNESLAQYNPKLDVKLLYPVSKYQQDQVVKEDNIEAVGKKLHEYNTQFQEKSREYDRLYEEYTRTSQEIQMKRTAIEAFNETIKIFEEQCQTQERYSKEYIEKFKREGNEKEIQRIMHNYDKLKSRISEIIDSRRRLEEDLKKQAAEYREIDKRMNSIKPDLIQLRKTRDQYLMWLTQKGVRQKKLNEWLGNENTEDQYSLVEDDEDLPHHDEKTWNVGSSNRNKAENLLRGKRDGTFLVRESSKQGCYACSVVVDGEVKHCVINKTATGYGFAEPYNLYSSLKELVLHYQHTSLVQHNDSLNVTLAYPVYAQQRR

Test [1] addresses PI3K-α (PIK3CA) wild-type (WT), p110α/p85α complex (Homo sapiens, UniProt P42336). Description: PI3K-alpha kinase (PIK3CA) biochemical activity, ADP-Glo, wild-type. Particulars: read-out: IC50 WT, Soy PI lipid substrate, tested form: TFA. An excerpt:
(§1) PI3K-Alpha Kinase (PIK3CA) Activity, Wild-Type and H1047R Mutant and Determining IC50 Values for Inhibitors
(§2) Recombinant, catalytically active human full length PIK3KA Wild-type and H1047R mutant were purchased as 1:1 complex of N-terminal 6×his tagged p110α (catalytic) and untagged p85α (regulatory subunit) from EMD Millipore Sigma (cat. no. 14-602M and 14-792M, respectively). PIP2diC8 (Avanti Polar Lipids Inc., cat. no. 850185) or Soy PI (Avanti Polar Lipids Inc., cat. No. 840044P) was used as lipid substrate. PIP2diC8 or PI lyophilized powder was dissolved in milliQ water to a concentration of 1 mM just before use. 10 mM stock compounds in DMSO were serially diluted 1:3 to generate a 10-point curve and plated using an acoustic liquid handler system (Echo 550 series instrument, Labcyte). […] Then, 10 uL of Kinase Detection Reagent (ADP-Glo Kinase assay kit, Promega cat. no. V9102) was added to simultaneously convert ADP to ATP and allow the newly synthesized ATP to be measured using a luciferase/luciferin reaction. After 30 min at room temperature the light generated was measured using a luminometer (EnVision plate reader, Perkin Elmer). […] Relative IC50 values are determined using luminescence units by calculating percent inhibition with respect to on-plate “MIN” and “MAX” controls. […]

Test [2] deals with PI3K-α (PIK3CA) H1047R mutant, p110α/p85α complex (Homo sapiens, UniProt P42336, H1047R). Description: PI3K-alpha kinase (PIK3CA) biochemical activity, ADP-Glo, H1047R mutant. Particulars: read-out: IC50 H1047R, Soy PI lipid substrate, tested form: TFA.
Description: as §1, §2
(In ADP-Glo the light output rises with the ADP produced.)

pIC50: −log10 of the molar value.

Regarding `Cc1cc(C(C)Nc2ccccc2C(=O)O)c2oc(-c3cnc4cn(C)nc4c3)cc(=O)c2c1` (centres unmarked), the pIC50 – broadly, −log10 of the IC50, conventionally taken in molar units – in test [1] was 5.00 to 5.30; in test [2] it was 5.30 to 6.00.
